According to US20050169994A1, “Carvedilol free base, salts, anhydrous forms or solvates thereof, corresponding pharmaceutical compositions, controlled release formulations, and treatment or delivery methods” (priority 2003, published 2005):
Counter-ions that a name gives are not always drawn.

Assay: Solubility in water at 25° C. over time, with pH of filtered solution
Conditions: for Aqueous Solubility: Table 13, 25° C.

Work on `COc1ccccc1OCCNCC(O)COc1cccc2[nH]c3ccccc3c12` (centres unmarked) [HBr salt, carvedilol hydrobromide] yielded a pH of solution (Table 13, 1 hr) of 6.1, a pH of solution (Table 13, 4 hr) of 6.3 and a pH of solution (Table 13, 24 hr, hydrobromide) of 6.2.

In the case of “Carvedilol Monocitrate Monohydrate [Carvedilol Mono-Citrate Salt]”, the “pH of filtered solution” value (Table 11, 48 hr) is reported as 3.0.

In the case of `COc1ccccc1OCCNCC(O)COc1cccc2[nH]c3ccccc3c12` (centres unmarked) [Carvedilol], the pH of solution (Table 13, 24 hr, listed as Free Base) is reported as “(pH = 7.0)”.

In the case of `COc1ccccc1OCCNCC(O)COc1cccc2[nH]c3ccccc3c12.O=P(O)(O)O` (centres unmarked) [Phosphate salt, Carvedilol dihydrogen phosphate], the “Aqueous Solubility” value (1 hr) is reported as 2.35 mg of Carvedilol free base/mL of solution, the “Aqueous Solubility” value (4 hr) is reported as 2.25 mg of Carvedilol free base/mL of solution and the “Aqueous Solubility” value (24 hr) is reported as 2.21 mg of Carvedilol free base/mL of solution. It also gave a pH of solution (Table 13, 1 hr) of 3.0, a pH of solution (Table 13, 4 hr) of 3.0 and a pH of solution (Table 13, 24 hr) of 3.0.
